Measured values as given in patent publication US20240207313A1.

Target: T-cell surface glycoprotein CD4 [Homo sapiens] (Homo sapiens) (UniProt P01730)
Assay: cell-based or functional assay

## CART4 anti-CD4 chimeric antigen receptor (scFv of monoclonal antibody Hu5A8, CD8a hinge/transmembrane domain, CD28, 4-1BB and CD3 zeta signalling domains), expressed on transduced human T cells
  ablation of CD4+ malignant cells in ATLL patient PBMCs, 4-hour co-culture: 80%
  lysis of CD4+ cells in autologous PBMCs, E:T 3:1, 4-hour co-culture: 94%
  reduction of malignant T cells in primary CTCL samples, 4-hour co-culture: 60% and 80%

Several values for one entry are separate records, joined by “and”; a condition that tells them apart may be missing. Identical values can stand only once.
